Data on two substances can be found in publication PMC2958839, “Multiple FadD Acyl-CoA Synthetases Contribute to Differential Fatty Acid Degradation and Virulence in Pseudomonas aeruginosa” (PLoS ONE, 2010).

Assay in all cases: purified protein
Data set [1] deals with Nc1ncnc2c1ncn2[C@@H]1O[C@H](COP(=O)(O)OP(=O)(O)OP(=O)(O)O)[C@@H](O)[C@H]1O. To be noted: 1 mM C18:1 Δ9, 0.5 mM CoASH, 0.05-2.5 mM ATP, 10 mM MgCl2, 0.1% Triton X-100, pH 7.2, 37°C, printed unit mM conflicts with printed kcat/Km (implies µM).
The subject of data set [2] is CCCCCCCCCC(=O)O. The note with it: 5 mM ATP, 0.5 mM CoASH, 30-300 µM FA, 10 mM MgCl2, 0.1% Triton X-100, pH 7.2, 37°C, printed unit mM conflicts with printed kcat/Km and FA range (implies µM).
For data set [3], the system named is CCCC(=O)O. To be noted: 5 mM ATP, 0.5 mM CoASH, 30-300 µM FA, 10 mM MgCl2, 0.1% Triton X-100, pH 7.2, 37°C, printed unit mM conflicts with printed kcat/Km and FA range (implies µM).

Broadly, the Km is the concentration of substrate that gives half-maximal velocity. A word on the kcat: it is the maximal rate divided by the concentration of active sites. As for FadD1 (Pseudomonas aeruginosa PAO1), in data set [1], the Km was 10.6 mM and the kcat turned out to be 0.219 s⁻¹.
For the substance FadD2 (Pseudomonas aeruginosa PAO1), the figures for the kcat in data set [2], in data set [1] and in data set [3] were 0.187 s⁻¹, 0.187 s⁻¹ and 0.172 s⁻¹, respectively. For the same substance, the Km in data set [1] turned out to be 10.9 mM.
